Laboratory results published in patent US9428496B2, “Thiazolamine derivative and use thereof as anti-picornaviral infection medicament” (Institute of Pharmacology and Toxicology Academy of …, priority 2010, dated 2016).

How the values were obtained:
enterovirus Cox A16 = type: cell-based; conditions: CoxA16, Vero cells
Method: (§1) Anti-picornaviral activity of the compounds of the present invention in in vitro model Test item: activity screening of compounds against enteroviruses EV71 and Cox A16 Test principle: using Vero cells as virus host, the cytopathic effect of Vero cells induced by the inhibition of compounds against enteroviruses EV71 and Cox A16 was measured.
(§2) 1. Virus strains: enteroviruses EV71 (Shenzhen 98) and Cox A16, passaging in the laboratory.
(§3) Test Method: Vero cells were incubated in a 96-well culture plate. After 24 hours, they were infected with EV71 and Cox A16 by adsorption for 2 hours. After discarding the virus solution, maintenance solutions containing different concentrations of samples and positive controls were added, and, at the same time, cell control wells and virus control wells were set. […] The half inhibitory concentrations (IC50) of the samples against EV71 and Cox A16 were respectively calculated according to the Reed-Muench method.

[1] = tested on: enterovirus EV71 (Shenzhen 98); experiment: Inhibition of cytopathic effect (CPE) induced by EV71 in Vero cells; type: cell-based
Method: as §1, §2, §3

In the case of `NC(=O)c1ncn([C@@H]2O[C@H](CO)[C@@H](O)[C@H]2O)n1` [Con, ribavirin, reference compound], the “CoxA16 SI” value (enterovirus Cox A16) is reported as 5.5 and the “EV71 SI” value [1] is reported as 3.9.
